Several values for one entry are separate records, joined by “and”; a condition that tells them apart may be missing. Equal entries are not always repeated.
Tests used:
[1] = assay type: in vitro ADME; conditions: isolated perfused rat liver (data not shown)
[2] = Absorption from isolated perfused rat intestine; assay type: in vitro ADME; conditions: after 2 hours perfusion; approximately 1 mg DA-DKP or 1.4 mg EA-DKP injected into lumen of the duodenum
Protocol: The rat intestine from the pyloric sphincter to the rectum was marginally isolated and perfused via the mesenteric artery with an erythrocyte based perfusate containing bovine serum albumin. The effluent perfusate from the gut was collected by cannulation of the portal vein and re-circulated (after re-oxygenation). After an equilibration period, a solution (approximately 1 ml) containing approximately 1 mg of Asp-Ala diketopiperazine (DA-DKP) or 1.4 mg of Glu-Ala diketopiperazine (EA-DKP) was administered by injection into the lumen of the duodenum.
After dosing, serial samples of the perfusate were collected at timed intervals up to 2 hours past dosing. Those samples were centrifuged and the plasmas assayed for both cyclic dipeptides by tandem liquid chromatography mass spectrometry (LC-MS).

[3] = Crossing of the blood-brain barrier (preliminary data)
Description: Thus, DA-DKP and other diketopiperazines of the invention should be useful for treating nervous system disorders, such as multiple sclerosis.

[4] = Preliminary pharmacokinetics in rats after oral administration; assay type: in vivo; conditions: oral dosing at 1.1-3.7 mg/kg body weight (DA-DKP) and 1.5-4.8 mg/kg body weight (EA-DKP), calculated from curve fit
Protocol: ; both were calculated from a curve fit equation for the data obtained).

Substance	first pass hepatic clearance [1]	amount absorbed from the gut lumen into the circulation, of the dose administered [2]	crossing of the blood-brain barrier [3]	lysis of TriPS cells (FIG. 2) (TriPS cells)	Cmax [4] [µg/mL]
Asp-Ala diketopiperazine [DA-DKP]	lack of first pass hepatic clearance	95%	cross the blood-brain barrier	No lysis	4 to 6
Glu-Ala diketopiperazine [EA-DKP]		100% and 112%			0.6 to 1.1
